Assays:
Test in all cases: Algae control (aquatic weed control) test
Format in all cases: in vivo
Settings in all cases: 2 ppm, 20°C, 7 to 10 days, 0 no effectiveness, 100 complete effectiveness
Lemna = test system: Lemna
Elodea = test system: Elodea
Spirolina = test system: Spirolina

## O=S(=O)(C(Cl)CSc1ccc(Cl)cc1)C(Cl)CSc1ccc(Cl)cc1 (stereo not drawn)
Lemna
  Percent Aquatic Weed Control: 22%
Elodea
  Percent Aquatic Weed Control: 22%
Spirolina
  Percent Aquatic Weed Control: 90%
